The source made the active and inactive calls. The calls are words filed in the database; no cut-off is given here.

The test system of this test is BaF3. The conditions noted are these: Mus musculus, dose 1.0 nmol/L, time 2.0 hrs.

As to `C[C@@H]1CCc2ncc(F)cc2[C@H]2CCCN2c2ccn3ncc(c3n2)C(=O)N1` [SELITRECTINIB], the inhibition entry is “Active”.

The record behind these values is ChEMBL document CHEMBL6182921, “Structural Optimization of Next-Generation TRK Inhibitors against Acquired Drug Resistance Mutations for the Treatment of Solid Tumors” (J Med Chem, 2025).
